For the series the following is noted: rat, in vivo.

Results on one molecule are retold here after patent US6770673B1, “Therapeutic uses of arglabin in combination with other chemotherapy agents” (priority 1997, dated 2004).

For `CC1=CCC23OC2(C)CCC2C(CN(C)C)C(=O)OC2C13.Cl` (stereo not shown) [Dimethylaminoarglabin hydrochloride], the biological half-life entry was “about 46.8 hours”.
